From US11555072B2, “A33 antibody compositions and methods of using the same in radioimmunotherapy” (MEMORIAL SLOAN KETTERING CANCER CENTER, priority 2017, dated 2023) come the findings set out here.

Series [1] is described as follows: PRIT toxicity assessment in treated mice (planned). The series is classed as in vivo. The method, then:
Biodistribution of radiolabeled DOTA-Bn and estimates of absorbed doses in mice implanted with SW1222 tumor cells are determined. PRIT is carried out in groups of A33-positive SW1222 tumor-bearing mice with the optimum doses of huA33-C825 and Clearing Agent, followed with 2.0 MBq (−10 pmol) of ^177Lu-DOTA-Bn and biodistribution studies are carried out from 2-120 h p.i. of ^177Lu-DOTA-Bn to determine the ^177Lu-activity residence time in tumor and various normal tissues. Briefly, ^177Lu-activity in tumor and various normal tissues are determined using a biodistribution assay following PRIT with optimum A33-C825 (huA33-huC825 or huA33-mC825) and dextran-clearing agent doses and 2.0 MBq (−10 pmol) of ^177Lu-DOTA-Bn. Groups of SW1222 tumor-bearing mice (n=4 to 5) are given huA33-C825, followed 24 h later with dextran-clearing agent, and after an additional 4 h, 2.0 MBq (−10 pmol) of ^177Lu-DOTA-Bn. […] For each target region, the absorbed dose is calculated as the product of the ^177Lu equilibrium dose constant for non-penetrating radiations (i.e., beta rays) and the target regions ^177Lu cumulated activity, assuming complete local absorption of the ^177Lu beta rays and ignoring the gamma ray and non-self dose contributions. […] Similar results in tumor uptake after PRIT are expected when assessed using PET imaging. […]

Series [2] deals with A33-positive SW1222 xenografts. The series can be described thus: PRIT therapy studies in SW1222 xenograft mice (planned). The series is classed as in vivo. The method, then: PRIT reagents, protocol and xenograft studies. All animal experiments will be approved by the Institutional Animal Care and Use Committee of Memorial Sloan Kettering Cancer Center and institutional guidelines for the proper and humane use of animals in research will be followed. Athymic nu/nu female mice (6-8 weeks old; Harlan Sprague Dawley) are allowed to acclimate in the vivarium for at least one week. Groups of animals are injected s.c. with A33-positive SW1222 in the left flank with 5×10^6 tumor cells formulated with […]® (BD Biosciences, San Jose, Calif.) in a 1:1 ratio, and established tumors (100-900 mm^2) will be observed in 7-10 days using the formula for the volume of an ellipsoid (V=4/3π(length/2×width/2×height/2). All reagents will be given intravenously (i.v.) via the lateral tail vein. PRIT protocol includes injections of: huA33-huC825 or huA33-mC825 [t=−28 h], followed by clearing agent (a 500 KDa dextran-(Y)-DOTA-Bn conjugate, prepared according to Orcutt et al., Nucl. Med Biol. 38:223-233 (2011) and formulated in saline for injection 24 h later. The substitution ratio of moles of (Y)-DOTA-Bn per moles of dextran will be 61(Y)-DOTA-Bn/dextran)) [t=−4 h], and ^177Lu-DOTA-Bn (prepared as previously described by incubating aminobenzyl-DOTA(p-NH2-Bn-DOTA) from MACROCYCLICS™ and ^177LuCl3 (specific activity −30 Ci/mg; […]®, Inc.) and formulated in saline for injection) after 4 h [t=0 h]. In addition, huA33-C825 is trace radiolabeled with I^131 to estimate tumor uptake during PRIT.
Therapy and scintigraphy studies. Groups of mice bearing established s.c. A33-positive SW1222 xenografts are injected with either huA33-C825 (huA33-huC825 or huA33-mC825) or non-specific (n.s.) IgG-C825 PRIT (i.e., single-cycle treatment, ^177Lu-DOTA-Bn injection on day 7 post tumor-inoculation) or two cycles of PRIT (i.e., dual-cycle treatment study, ^177Lu-DOTA-Bn injections given on day 10 and day 17 post tumor-inoculation). For the dual-cycle treatment study, the tumor volume on day 10-post tumor inoculation (TV 10) is described (i.e., day of first ^177Lu-DOTA-Bn injection) and expressed when appropriate as average±SD. The following definitions are used to describe treatment response: a complete response (CR) is defined as tumor shrinkage to <100 mm^3. A durable response (DR) is defined as survival at 140 days post treatment. Excessive tumor burden is defined as >2000 mm^3. […]
Biodistribution of radiolabeled DOTA-Bn and estimates of absorbed doses in mice implanted with SW1222 tumor cells are determined. […] Briefly, ^177Lu-activity in tumor and various normal tissues are determined using a biodistribution assay following PRIT with optimum A33-C825 (huA33-huC825 or huA33-mC825) and dextran-clearing agent doses and 2.0 MBq (−10 pmol) of ^177Lu-DOTA-Bn. […]

A further series concerns T cells. Kind of series: T cell activation and proliferation assay (CFSE-labeled PBMCs plus tumor cells). The format is cell-based, human. The method, then:
T cell proliferation assay. Fresh PBMCs from healthy donors were labeled with […] CFSE (Life Technologies Corp., Carlsbad, Calif.) for 5 min at room temperature, followed by neutralization using PBS containing 5% FBS. Target cells were then incubated with labeled PBMCs under different conditions at 37° C. before analyzing the expression of surface activation markers and T cell proliferation at 24 hours and 96 hours.
HuA33-BsAb activated and induced cell cycle entry of fresh T cells.

The mark [3] stands for this setting: three cycles, 55 MBq 177Lu-DOTA-Bn each.

B1: huA33-C825: huA33 bispecific with anti-DOTA C825 scFv (huA33-huC825 or huA33-mC825); also negative control lacking anti-CD3 scFv (antibody)
heavy: EVQLLESGGGLVQPGGSLRLSCAASGFAFSTYDMSWVRQAPGKGLEWVATISSGGSYTYYLDSVKGRFTISRDSSKNTLYLQMNSLQAEDSAIYYCAPTTVVPFAYWGQGTLVTVSSASTKGPSVFPLAPSSKSTSGGTAALGCLVKDYFPEPVTVSWNSGALTSGVHTFPAVLQSSGLYSLSSVVTVPSSSLGTQTYICNVNHKPSNTKVDKRV[gap - human IgG1 Fc with changes]
light: DIQMTQSPSSLSVSVGDRVTITCKASQNVRTVVAWYQQKPGLAPKTLIYLASNRHTGVPSRFSGSGSGTDFTFTISSLQPEDIATYFCQQHWSYPLTFGQGTKVEVKRTVAAPSVFIFPPSDEQLKSGTASVVCLLNNFYPREAKVQWKVDNALQSGNSQESVTEQDSKDSTYSLSSTLTLSKADYEKHKVYACEVTHQGLSSPVTKSFNRGECGGGGSGGGGSASHVKLQESGPGLVQPSQSLSLTCTVSGFSLTDYGVHWVRQSPGKGLEWLGVIWSGGGTAYNTALISRLNIYRDNSKNQVFLEMNSLQAEDTAMYYCARRGSYPYNYFDAWGCGTTVTVSSGGGGSGGGGSGGGGSQAVVIQESALTTPPGETVTLTCGSSTGAVTASNYANWVQEKPDHCFTGLIGGHNNRPPGVPARFSGSLIGDKAALTIAGTQTEDEAIYFCALWYSDHWVIGGGTRLTVLG
In the case of B1, the “toxicity over prolonged periods” value in series [1] (subjects with durable responses after PRIT) is reported as “little to no toxicity”. Besides, the “toxicities after three-cycle PRIT regimen” value in series [1] (setting [3]) is “no obvious toxicities in kidney, liver, spleen, and bone/marrow”. Also, the “tumor response, single-cycle therapy study” value in series [2] (11.1 or 33.3 MBq 177Lu-DOTA-Bn) is listed as “delay in tumor growth”. The “tumor to blood therapeutic index” value in series [2] (single-cycle PRIT with 177Lu-DOTA-Bn) is given as “high tumor to blood therapeutic index”. Besides, the “tumor response, three-cycle PRIT regimen” value in series [2] (setting [3]) is “complete tumor response in all treated animals”. Moreover, in series [2] (two cycles of PRIT+11.1 MBq 177Lu-DOTA-Bn), the “tumor response, dual-cycle PRIT” value is recorded as “complete tumor response and/or delay tumor growth”. Besides, the “T cell division by CFSE dye dilution” value in the series on T cells (PBMCs + Colo205, 96 hours) is “did not stimulate significant amount of cell division”. In addition, the “upregulation of CD25” value in the series with T cells (PBMCs + Colo205, E:T 5, 24 hours) is recorded as “only minimal upregulation of CD25”.
